Measurements published in ChEMBL document CHEMBL1129057, “Structure-based alignment and comparative molecular field analysis of acetylcholinesterase inhibitors” (J Med Chem, 1996).

Protein sequences, listed by entry. Tags and fused reporters are not part of them. Lines headed by an entry give the natural chain unless they say otherwise; changes in a name come on top.
UniProt P22303: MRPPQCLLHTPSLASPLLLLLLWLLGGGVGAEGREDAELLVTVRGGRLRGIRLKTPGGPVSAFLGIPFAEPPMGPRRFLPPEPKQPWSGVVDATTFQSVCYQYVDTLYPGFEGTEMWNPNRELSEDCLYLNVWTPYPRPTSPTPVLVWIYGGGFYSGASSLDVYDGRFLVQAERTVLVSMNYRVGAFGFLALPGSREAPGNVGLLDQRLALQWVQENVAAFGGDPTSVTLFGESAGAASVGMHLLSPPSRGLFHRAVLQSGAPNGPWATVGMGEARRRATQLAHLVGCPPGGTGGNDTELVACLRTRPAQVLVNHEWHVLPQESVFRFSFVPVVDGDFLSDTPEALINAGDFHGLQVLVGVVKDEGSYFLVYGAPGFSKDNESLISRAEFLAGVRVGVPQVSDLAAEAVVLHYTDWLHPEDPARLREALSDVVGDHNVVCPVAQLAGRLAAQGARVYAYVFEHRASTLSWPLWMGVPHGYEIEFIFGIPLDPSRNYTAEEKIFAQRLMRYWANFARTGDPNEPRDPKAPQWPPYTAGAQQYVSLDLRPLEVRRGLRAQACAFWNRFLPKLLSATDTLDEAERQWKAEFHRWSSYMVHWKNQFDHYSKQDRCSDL

Target: Acetylcholinesterase (Homo sapiens, UniProt P22303)

SMILES | IC50 [nM]
CCCCCCCCNC(=O)Oc1ccc2c(c1)[C@]1(C)CCN(C)C1N2C (stereo partly drawn) | 110
C=CC[N+](C)(C)c1ccc(CCC(=O)CCc2ccc([N+](C)(C)CC=C)cc2)cc1 | 8
COc1ccc(NC(=O)Oc2ccc3c(c2)[C@]2(C)CCN(C)C2N3C)cc1 (stereo partly drawn) | 1700
